Source: ChEMBL document CHEMBL4428055 (J Med Chem, 2016)
Active and inactive are the calls of the source. The calls are words filed in the database; no cut-off is given here.

What was measured:
[1] = biological target: T1, Aldo-keto reductase family 1 member C3 (Homo sapiens, UniProt P42330); assay: Inhibition of human recombinant AKR1C3 using S-tetralol as substrate assessed as reduction in NADP+-dependent S-tetralol oxidation preincubated for 10 mins followed by protein addition by fluorometric assay
T1 sequence (P42330 whole entry): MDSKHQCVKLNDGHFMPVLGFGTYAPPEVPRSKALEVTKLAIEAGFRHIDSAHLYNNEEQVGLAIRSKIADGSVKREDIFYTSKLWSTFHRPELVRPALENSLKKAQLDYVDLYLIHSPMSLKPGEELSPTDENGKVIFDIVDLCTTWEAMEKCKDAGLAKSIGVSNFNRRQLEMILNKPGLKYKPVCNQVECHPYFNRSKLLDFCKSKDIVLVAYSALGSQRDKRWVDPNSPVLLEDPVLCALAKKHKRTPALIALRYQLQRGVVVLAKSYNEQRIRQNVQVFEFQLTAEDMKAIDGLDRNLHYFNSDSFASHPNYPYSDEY

[2] = biological target: T2, Aldo-keto reductase family 1 member C3 (Homo sapiens) (UniProt P42330); details: LNCaP, 30 uM
T2 sequence (whole entry): T1 sequence (P42330 whole entry)

[3] = biological target: T2, Aldo-keto reductase family 1 member C3 (Homo sapiens); details: LNCaP, 30 uM; remark: listed apart in the source
[4] = biological target: T2, Aldo-keto reductase family 1 member C3 (Homo sapiens); details: LNCaP, 30 uM; remark: listed apart in the source

Row | inhibition [2] | inhibition [3] | inhibition [4] | Structure (SMILES) | IC50 [1] [nM]
1 | – | – | – | COc1ccc2cc([C@@H](C)C(=O)O)ccc2c1 | 50
2 | Active | Active | Active | CC[C@@H](C(=O)O)c1ccc2cc(OC)ccc2c1 | –
